## Measured water solubility values of organic chemicals

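The numbers are reported measurements, compiled and curated for the OPERA QSAR suite. A listed value is a point estimate from one report or more. How each value was measured is not recorded, so precision varies. The measured form (salt, isomer or mixture) is not always the one drawn. Some entries may be limits or estimates that an upstream database listed as plain numbers.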

Solubility in water is on a log10 molar scale (set defined at 25 °C). Cells with "n/a" have no entry in this list.

| compound | name | water solubility (log10 mol/L) |
|---|---|---|
| Cc1[nH]n(-c2ccc([N+](=O)[O-])cc2)c(=O)c1[N+](=O)[O-] | n/a | -1.9 |
| COc1cc(N)c2c(c1N)C(=O)c1ccccc1C2=O | n/a | -5.75 |
| CCCC(O)C(CC)CO (stereo not drawn) | 2-Ethyl-1,3-hexanediol | -0.54 |
| COC(=O)c1ccc(N)cc1 | Benzoic acid, 4-amino-, methyl ester | -1.59 |
| O=C(OCn1ncc2c(O)ncnc21)c1cccnc1 | ALLOPURINOL, 1-[NICOTINOYLOXYMETHYL]- | -3.465 |
| O=S1(=O)c2ccccc2S(=O)(=O)c2cc(O)ccc21 | beta-Hydroxythianthrenedisulfone | 0.416 |
| O[C@]1(c2ccc(Cl)cc2)CCCCC[C@@H]1n1cncn1 | Huanjunzuo | -3.368 |
| CNC(=O)Nc1ccc(C)c(Cl)c1 | N-(3-chloro-4-methylphenyl)-N'-methylurea | -2.879 |
| CCN(CC)C(=S)[S-].CCN(CC)C(=S)[S-].[Zn+2] | Zinc diethyldithiocarbamate | -5.533 |
| O=C(c1ccco1)c1no[n+]([O-])c1C(=O)c1ccco1 | 3,4-Bis(2-furoyl)furazan 2-oxide | -3.847 |
| O=c1cnc2ncncc2[nH]1 | 6-Hydroxypteridine | -2.714 |
| O=C1CCC(C(=O)Nc2ccccc2)N1 (stereo not drawn) | 5-Oxo-N-phenylpyrrolidine-2-carboxamide | -1.328 |
| O[C@@H]1[C@H](Oc2ccccc2)OC[C@@H](O)[C@H]1O | Phenyl beta-D-arabinopyranoside | -1.656 |
| C1=CC2CCC1C2 | Norbornylene | -2.848 |
| CCOc1nc2c(c(=O)n(C)c(=O)n2C)n1C | 8-Ethoxycaffeine | -1.9 |
| C#CCON=C1CC2CCC1(C)C2(C)C (stereo not drawn) | Heptopargil | -2.312 |
| CC1COC(C)(C)O1 (stereo not drawn) | 2,2,4-Trimethyl-1,3-dioxolane | -0.02 |
| CC(=O)CC(=O)CC(C)C | 2,4-Heptanedione, 6-methyl- | -1.6 |
| CCCCCCC(O)CCCCCCCCCCC(=O)NCc1cccc(CNC(=O)CCCCCCCCCCC(O)CCCCCC)c1 (stereo not drawn) | n/a | -6.04 |
| Oc1nc(C(F)(F)F)nc2nc[nH]c12 | 2-(Trifluoromethyl)-1,7-dihydro-6H-purin-6-one | -2.253 |
| CCN(CCO)c1ccc(/N=N/c2ccc([N+](=O)[O-])cc2Cl)cc1 | n/a | -7.46 |
| C[C@H]1CC[C@H](C(N)=O)CC1 | trans-4-Methylcyclohexanecarboxamide | -2.172 |
| COc1cc(C(=O)CO)ccc1O | Acetophenone, 2,4'-dihydroxy-3'-methoxy- | -1.783 |
| CC1=NOC(=O)C1=NO | 4-(Hydroxyimino)-3-methyl-1,2-oxazol-5(4H)-one | -0.539 |
| O=S(=O)(O)c1ccc(N=Nc2c(O)ccc3ccccc23)cc1 | C.I. Acid Orange 7 parent | -0.276 |
| COc1ccc(/C=N/NC(N)=S)cc1O[C@@H]1O[C@H](CO)[C@@H](O)[C@H](O)[C@H]1O | n/a | -2.889 |
| CC(C)C1=CC(=O)C(C)CC1 (stereo not drawn) | 6-Methyl-3-(propan-2-yl)cyclohex-2-en-1-one | -1.844 |
| Nc1ccccc1N | 1,2-Phenylenediamine | -0.42 |
| NC(=O)C1OC(=O)c2ccccc21 (stereo not drawn) | 3-Oxo-1,3-dihydro-2-benzofuran-1-carboxamide | -2.134 |
| O=[N+]([O-])c1ccc(Nc2ccccc2)c([N+](=O)[O-])c1 | Benzenamine, 2,4-dinitro-N-phenyl- | -3.834 |
| CC1(C)OCC([C@H]2O[C@@H]3OC(C)(C)O[C@@H]3[C@H]2O)O1 (stereo partly drawn) | .alpha.-D-Glucofuranose, 1,2:5,6-bis-O-(1-methylethylidene)- | -0.785 |
| C[Si]1(C)O[Si](C)(C)O[Si](C)(C)O1 | Hexamethylcyclotrisiloxane | -5.143 |
| O=C(O)CC=CCC(=O)O | 3-Hexenedioic acid | -1.388 |
| OCc1cnc(O)nc1O | 2,4(1H,3H)-Pyrimidinedione, 5-(hydroxymethyl)- | -0.509 |
| O=C(O)[C@H]1CC[C@H](C(=O)O)CC1 | trans-1,4-Cyclohexanedicarboxylic acid | -2.333 |
| O=C(O)C(O)Cc1ccc(O)cc1 (stereo not drawn) | 2-Hydroxy-3-(4-hydroxyphenyl)propanoic acid | -1.15 |
| CC(C)OC(=O)CCC/C=C\C[C@@H]1[C@@H](/C=C/C(F)(F)COc2ccccc2)[C@H](O)C[C@@H]1O | Tafluprost | -4.933 |
| CC(=O)[C@H]1CC[C@H]2[C@@H]3CCC4=CC(=O)CC[C@]4(C)[C@H]3[C@H](O)C[C@]12C | n/a | -3.821 |
| CC(=O)OCn1ncc2c(O)ncnc21 | ALLOPURINOL, 1-[(ACETYLOXY)METHYL]- | -2.555 |
| O=C1N[C@H]2NC(=O)N[C@H]2N1 | Glycoluril | -1.995 |
| O=C1c2cccc(S(=O)(=O)O)c2C(=O)c2cccc(Cl)c21 | n/a | 0.19 |
| Nc1cnc2ncncc2n1 | Pteridin-6-amine | -2.344 |
| CCCCCCOC(=O)C(C)OC(=O)C(C)O (stereo not drawn) | 1-(Hexyloxy)-1-oxopropan-2-yl 2-hydroxypropanoate | -2.489 |
| CCCCCOC(=O)CCC | n-Amyl butyrate | -3.421 |
| Cl.NNc1nncc2ccccc12 | Hydralazine hydrochloride | -0.648 |

7 of these entries, quoted again:

| compound | name | water solubility (log10 mol/L) |
|---|---|---|
| CC1(C)OCC([C@H]2O[C@@H]3OC(C)(C)O[C@@H]3[C@H]2O)O1 (stereo partly drawn) | .alpha.-D-Glucofuranose, 1,2:5,6-bis-O-(1-methylethylidene)- | -0.785 |
| Nc1ccccc1N | 1,2-Phenylenediamine | -0.42 |
| C[Si]1(C)O[Si](C)(C)O[Si](C)(C)O1 | Hexamethylcyclotrisiloxane | -5.143 |
| CC1=NOC(=O)C1=NO | 4-(Hydroxyimino)-3-methyl-1,2-oxazol-5(4H)-one | -0.539 |
| NC(=O)C1OC(=O)c2ccccc21 (stereo not drawn) | 3-Oxo-1,3-dihydro-2-benzofuran-1-carboxamide | -2.134 |
| CC1COC(C)(C)O1 (stereo not drawn) | 2,2,4-Trimethyl-1,3-dioxolane | -0.02 |
| CC(=O)CC(=O)CC(C)C | 2,4-Heptanedione, 6-methyl- | -1.6 |

Data: OPERA 2.9 data sets, kmansouri/OPERA on GitHub.